# Measured affinities in a library of Ab-14 heavy chain variants

Data: MIT Lincoln Laboratory AlphaSeq set, Li et al. 2023, doi:10.1038/s41467-023-39022-2, as distributed in FLAb.

Binding partner: SARS-CoV-2 spike HR2 peptide, sequence PDVDLGDISGINAS.

Each scFv is VH, the linker GGGGSGGGGSGGGGS, VL, as in the parent Ab-14, and differs from it in the CDRs of the heavy chain only.
VH: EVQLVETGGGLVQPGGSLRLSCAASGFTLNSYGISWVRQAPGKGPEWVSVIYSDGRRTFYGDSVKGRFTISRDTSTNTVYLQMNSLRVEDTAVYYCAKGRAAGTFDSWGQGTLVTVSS
VL: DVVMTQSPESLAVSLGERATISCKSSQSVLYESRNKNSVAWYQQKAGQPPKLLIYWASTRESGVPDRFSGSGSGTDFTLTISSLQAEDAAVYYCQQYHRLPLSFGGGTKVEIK

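The starting antibody came from a phage panning campaign against this peptide. The variants were designed computationally from a first round of random CDR variants and then made and measured. Their group label is 14H_GPLM_Gibbs (GPLM: also part of the Gaussian process libraries; Gibbs: Gibbs sampling; a sequence that several methods proposed may carry one label only). In AlphaSeq, yeast of one mating type display the scFv and yeast of the other type display the target. Binding brings cells together so that they mate, and sequencing counts the barcode pairs among the diploids. Scores were corrected for input abundance and mapped to Kd with protein pairs of known affinity run in the same pool. The assay was run in six technical replicates.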

Substitutions are numbered in sequence along the VH above, starting at 1 (not Kabat). Scale: log10 of Kd in nM, estimated from mating counts; low values are strong binders. A pair that was not seen in that replicate is written "n.d."; this usually means weak binding, but a binder can also be missed. Empty control strains, which show no peptide, gave a signal in 1% of pairings with all heavy chain designs; the median was 2.08 and 95% of these signals were weaker than 0.84. No background was subtracted. For each scFv, signals with the empty controls are counted beside the result, with their mean in brackets. A sequence measured in both rounds can read differently, since the two assays cover different ranges. The authors' rule: three or more of the six replicates give a measured affinity, fewer mean a poor binder.

changes	replicates, log10 nM	control signals
T28S/R100N/S107K	0.36 / 0.51 / 0.14 / 0.95 / 0.47 / 0.34	0 of 18
T28S/S31D/G61C/S63E/A101T	0.51 / 0.77 / 0.33 / -0.01 / 0.92 / 0.58	0 of 18
N30E/S63D/A101T	1.53 / 1.20 / 0.94 / 0.77 / 2.28 / 0.28	0 of 18
T28D/G61I/R100D	0.55 / 0.61 / 0.59 / 1.10 / 0.62 / 0.73	0 of 18
T28H/G61A/A101E/S107T	-0.18 / -0.33 / -0.63 / -0.74 / -0.57 / -0.39	0 of 18
S53A/S63A/R100E/S107K	0.29 / -0.11 / 0.02 / 0.12 / -0.04 / 0.24	0 of 18
T28D/S31A/R100K/A101T	0.54 / 0.76 / 0.57 / 0.70 / 0.69 / 1.07	0 of 18
T28E/G61S/R100K/A101V	-0.29 / -0.49 / -0.50 / -0.38 / -0.59 / -0.32	1 of 18 (2.55)
T28W/G61I/R100N	n.d. / 2.54 / n.d. / 2.42 / n.d. / 2.60	0 of 18
T28E/G61H/A101V	0.15 / -0.02 / 0.21 / -0.27 / 0.22 / 0.47	1 of 18 (2.82)
T28D/S31T/R100Q	0.69 / 1.06 / 0.98 / 1.02 / 0.86 / 0.99	0 of 18
T28N/G61I/R100E	1.14 / 0.47 / 0.23 / 1.27 / 0.69 / 0.63	0 of 18
T28Q/S31E/G61S/A101T	-0.25 / -0.02 / -0.12 / -0.37 / -0.31 / -0.30	0 of 18
T28E/R100S	1.09 / 1.02 / 0.66 / 0.81 / 0.41 / 0.76	0 of 18
G61H/R100K/A101V	0.33 / 0.45 / 0.43 / 0.69 / 0.64 / 0.86	0 of 18
T28S/G61I/R100K/S107T	0.47 / 0.87 / 0.06 / 1.36 / 0.97 / 1.27	0 of 18
T28D/A101V/S107V	0.42 / -0.55 / -0.94 / -0.29 / 0.09 / -0.73	0 of 18
R56K/G61A/S107T	0.32 / 0.90 / 1.74 / 0.53 / 0.87 / 0.50	1 of 18 (3.15)
T28S/S31A/R100K/A101T	0.69 / 0.37 / -0.06 / 0.24 / 0.31 / 0.43	0 of 18
N30E/G61A/R100Q/A101T	-0.15 / 0.57 / -0.03 / 0.63 / -0.54 / -0.02	0 of 18
T28E/G61Q/A101E	0.65 / 0.71 / 0.03 / 0.30 / 0.55 / 0.33	0 of 18
T28D/F59A	-0.15 / -0.10 / -0.47 / -0.57 / -0.21 / -0.05	0 of 18
T28S/R100S/A101I	-0.24 / 0.53 / -0.41 / 0.16 / 0.30 / 0.38	0 of 18
R56V/A101V/S107L	n.d. / 2.16 / 1.99 / 1.15 / 1.58 / 1.95	1 of 18 (1.58)
G61A/R100K/S107K	0.81 / 0.23 / n.d. / 0.81 / 1.67 / 1.66	0 of 18
T28S/G61V/R100K/A101Q	1.93 / 1.32 / 1.14 / 1.11 / 1.54 / 1.51	0 of 18
T28S/G61Q/S63K/A101T	0.56 / 1.03 / n.d. / n.d. / 0.62 / 1.66	0 of 18
T28D/R100E/S107L	0.94 / 0.98 / 0.93 / 1.32 / 0.99 / 2.06	1 of 18 (1.96)
T28N/G61H/R100Q/A101E	-0.97 / -0.80 / -1.18 / -0.94 / -0.42 / 0.45	1 of 18 (0.03)
T28V/G61A/R100K/A101T	0.66 / 0.91 / 0.76 / 1.26 / 0.79 / 1.72	0 of 18
T28E/G61A/R100K/A101E/S107T	-0.71 / 0.03 / 0.43 / -0.88 / 0.38 / -0.07	0 of 18
T28E/A101Q/S107T	1.15 / 0.39 / 0.43 / 0.27 / 0.76 / 0.88	2 of 18 (2.60)
T28D/G61T/R100D	0.42 / 0.38 / 0.43 / 0.34 / 0.13 / 0.36	0 of 18
T28D/G61I/A101S	n.d. / 0.08 / 0.45 / 1.12 / 1.67 / 1.37	0 of 18
T28E/G61V/R100S/A101T/S107T	0.62 / 0.88 / -0.85 / -0.38 / 0.64 / 0.00	0 of 18
T28W/S31D/G61H/A101T	n.d. / n.d. / 0.16 / 1.01 / 0.60 / 0.61	0 of 18
S31E/R100K/A101E/S107T	-0.20 / -0.38 / -0.43 / -0.57 / -0.64 / -0.46	0 of 18
T28E/G61T/R100D	0.32 / n.d. / 1.79 / 1.45 / 0.81 / 1.21	0 of 18
T28N/A101L	1.88 / 1.25 / 1.32 / 0.99 / 1.34 / 1.24	2 of 18 (2.21)
R100Q/A101V/S107V	n.d. / n.d. / 1.22 / n.d. / n.d. / n.d.	0 of 18
T28S/G61V/S63D/R100N	-0.50 / -0.11 / -0.01 / -0.40 / -0.55 / -0.26	0 of 18
T28D/F59V/S63A/A101T	0.29 / -0.13 / 0.41 / -0.07 / -0.48 / 0.38	0 of 18
T28E/G61A/A101E/S107T	0.25 / 0.67 / -0.08 / -0.16 / -0.32 / 0.08	0 of 18
R56Q/A101T/S107T	0.70 / 0.62 / 1.01 / 1.12 / 1.14 / 1.38	0 of 18
R100K/A101I/S107T	1.56 / 2.07 / 1.32 / 1.28 / n.d. / 1.62	0 of 18
T28S/G61T/S63D/R100E	0.58 / 0.05 / 0.13 / 0.55 / 0.21 / 0.69	1 of 18 (2.08)